Measured values from patent publication US7829568B2, “Substituted 5,6,7,8-tetrahydroimidazo[1,2-a]pyridin-2-ylamine compounds and their use for producing drugs” (Gruenenthal GmbH, priority 2005, dated 2010).

By UniProt entry, the sequences of proteins in these tests, tags left out.
UniProt O35433, whole entry: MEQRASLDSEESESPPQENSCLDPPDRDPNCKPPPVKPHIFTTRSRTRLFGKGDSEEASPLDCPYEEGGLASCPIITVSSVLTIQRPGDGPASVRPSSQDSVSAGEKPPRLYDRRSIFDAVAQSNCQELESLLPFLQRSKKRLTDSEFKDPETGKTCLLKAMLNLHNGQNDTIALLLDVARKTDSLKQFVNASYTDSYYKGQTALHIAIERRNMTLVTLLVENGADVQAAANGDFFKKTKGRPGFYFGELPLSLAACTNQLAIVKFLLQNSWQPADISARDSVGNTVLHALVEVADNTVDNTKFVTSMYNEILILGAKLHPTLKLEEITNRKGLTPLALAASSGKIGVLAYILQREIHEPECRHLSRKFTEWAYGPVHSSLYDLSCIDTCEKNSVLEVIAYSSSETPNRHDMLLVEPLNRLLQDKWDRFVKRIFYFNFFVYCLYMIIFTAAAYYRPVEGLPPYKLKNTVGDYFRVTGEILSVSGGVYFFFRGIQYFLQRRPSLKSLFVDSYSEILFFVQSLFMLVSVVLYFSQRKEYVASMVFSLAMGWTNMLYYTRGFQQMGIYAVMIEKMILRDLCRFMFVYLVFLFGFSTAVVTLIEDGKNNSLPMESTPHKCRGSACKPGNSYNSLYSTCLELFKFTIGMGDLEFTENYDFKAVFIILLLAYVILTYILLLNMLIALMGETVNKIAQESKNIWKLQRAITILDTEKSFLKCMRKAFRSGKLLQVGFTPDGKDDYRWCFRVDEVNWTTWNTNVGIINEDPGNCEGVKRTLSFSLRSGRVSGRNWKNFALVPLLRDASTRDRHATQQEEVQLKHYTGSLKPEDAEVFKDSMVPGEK

Biological target: vanilloid receptor 1 (VR1/TRPV1) of rats (Rattus norvegicus, UniProt O35433)
Experiment: Functional analysis on the vanilloid receptor 1 (FLIPR Ca2+ influx assay in rat dorsal root ganglia cells)
Conditions: for inhibition at 10 µM: read-out: VR1 (rat) (% inhibition in comparison with 10 μM CP); for activation at 10 µM: read-out: VR1 (rat) (% stimulation in comparison with 10 μM CP)

Compound | inhibition at 10 µM | activation at 10 µM
CCCCN(C(=O)c1ccc(F)c(F)c1)c1nc2n(c1C(=O)NCCC(C)(C)C)CCCC2 [Example 171, 2-[butyl-(3,4-difluoro-benzoyl)-amino]-5,6,7,8-tetrahydro-imidazo[1,2-a]pyridine-3-carboxylic acid (3,3-dimethyl-butyl)-amide] | 104% | 46%
CCCCN(C(=O)c1ccc(F)c(F)c1)c1nc2n(c1C(=O)NCCC(c1ccccc1)c1ccccc1)CCCC2 [Example 180, 2-[butyl-(3,4-difluoro-benzoyl)-amino]-5,6,7,8-tetrahydro-imidazo[1,2-a]pyridine-3-carboxylic acid (3,3-diphenyl-propyl)-amide] | 102% | 56%
CN(C(=O)c1cccc2ccccc12)c1nc2n(c1C(=O)Nc1ccc(Oc3ccccc3)cc1)CCCC2 [Example 185, 2-[methyl-(naphthalene-1-carbonyl)-amino]-5,6,7,8-tetrahydro-imidazo[1,2-a]pyridine-3-carboxylic acid (4-phenoxy-phenyl)-amide] | 56% | –
CCCCN(C(=O)c1ccc(F)c(F)c1)c1nc2n(c1C(=O)N1CCN(c3ccc(C(F)(F)F)cn3)CC1)CCCC2 [Example 187, N-butyl-3,4-difluoro-N-{3-[4-(5-trifluoromethyl-pyridin-2-yl)-piperazine-1-carbonyl]-5,6,7,8-tetrahydro-imidazo[1,2-a]pyridin-2-yl}-benzamide] | 37% | –
